The assay concerns the target C-X-C chemokine receptor type 4 (Homo sapiens, UniProt P61073). Briefly: Antagonist activity against human CXCR4 expressed in COS7 cells assessed as inhibition of CXCL12-induced myo-[3H]inositol production by scintillation counting. It is filed as functional, cell-based, COS-7.

Protein sequences, listed by entry. Tags and fused reporters are not part of them.
UniProt P61073, whole entry: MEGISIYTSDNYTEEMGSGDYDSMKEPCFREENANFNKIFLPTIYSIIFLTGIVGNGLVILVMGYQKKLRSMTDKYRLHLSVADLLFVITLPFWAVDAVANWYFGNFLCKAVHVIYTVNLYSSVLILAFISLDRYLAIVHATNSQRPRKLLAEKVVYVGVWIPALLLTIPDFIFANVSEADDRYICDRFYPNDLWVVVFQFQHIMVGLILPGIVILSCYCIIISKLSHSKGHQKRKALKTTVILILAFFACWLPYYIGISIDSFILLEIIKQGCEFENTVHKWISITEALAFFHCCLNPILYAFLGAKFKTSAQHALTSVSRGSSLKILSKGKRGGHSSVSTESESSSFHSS

In ChEMBL document CHEMBL2177054, “Rational design of conformationally constrained cyclopentapeptide antagonists for C-x-C chemokine receptor 4 (CXCR4)” (J Med Chem, 2012) one finds EC50 data, which are given here for two compounds.

The structures appear in SMILES notation.

Turning to `N=C(N)NCCC[C@@H]1NC(=O)[C@H](CCCNC(=N)N)NC(=O)[C@@H](Cc2ccc(O)cc2)NC(=O)CNC(=O)[C@H](Cc2ccc3ccccc3c2)NC1=O`, the concentration for a half-maximal effect (EC50) (usually the concentration that produces a half-maximal response) was 0.47 µM.

For `N=C(N)NCCC[C@@H]1NC(=O)[C@@H](CCCNC(=N)N)NC(=O)[C@@H](Cc2ccc(O)cc2)NC(=O)CNC(=O)[C@H](Cc2ccc3ccccc3c2)NC1=O`, the EC50 was determined as 0.78 µM.
